Screens as filed in PubChem BioAssay.
Most compounds without a hit are left out; they make up all but 2.2% or so of the library.
A549 tox: counter-screen for Nrf2 inhibitors: cytotoxicity in A549 cells; A549 ARE-Fluc cells, CellTiter-Fluor viability, 18-24 h; Potency, µM (top dose mostly 46 µM), for the others: at the top dose activity change, negative = cytotoxicity, actives largely listed as inhibitors; 390,000 compounds, 0.16% hits; further: potency means the concentration at half of the fitted maximal effect; on the % scale 0 is the no-effect control and ±100 the full control effect
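A549 ARE-Fluc cells in 5% FBS OPTI-MEM, 5000 cells/well, rested 2 h then exposed to compounds in concentration-response for 18-24 h at 37 °C. Viability by CellTiter-Fluor fluorescence (Ex 405/Em 525) after 30 min; luciferase luminescence (BugLite, 15 min, RT) read afterwards.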
miR-21 reporter: raises the signal of a miR-21 reporter | HeLa miR-21 FLuc reporter, luciferase, 48 h | Potency, µM (highest dose often 38.3 µM), for inactives: at the highest dose reporter change, positive = more light | 340,000 tested, under 10 active | AID 2288; active = well fitted rising curve with a large enough effect; inconclusive = small, poorly fitted or top-dose-only effect; inactive = no such curve, though single readings can be large or run the other way;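 also: % of control where 0% means no effect; miR-21 action dims this reporter so a rising signal means less miR-21 action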
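HeLa cells endogenously expressing miR-21, stably carrying CMV-driven firefly luciferase with a downstream miR-21 binding site, 2000 cells/well. Titrations up to approximately 40 uM, 48 hours; luciferase luminescence read.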
Nrf2 block: blocks Nrf2 signaling; A549 ARE-Fluc reporter, luciferase luminescence, 18-24 h; Potency, µM (top dose mostly 46 µM), without a hit: at the highest dose activity change, negative = inhibition, actives largely listed as inhibitors; 360,000 compounds, 2.1% hits; AID 504444; further: potency means the concentration at half of the fitted maximal effect; on the % scale 0 is the no-effect control and ±100 the full control effect; nearly all actives have a fitted effect of over 60% in size
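Reporter: ARE-Fluc in A549. Exposure: 18-24 h, 37 °C, 5% CO2, 5% FBS OPTI-MEM. Readouts: fluorescent cytotoxicity (CellTiter-Fluor), then luminescent Nrf2 signal after BugLite.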
PI4K2A inh: PI4K2A (human) kinase inhibition; Q9BTU6; purified PI4K2A, ADP-Glo luminescence, 1 h; stronger effect = lower value; activity change, negative = inhibition, % at 76.9 µM; 420,000 compounds, 0.13% hits; AID 1346378; in the data active means activity change below about -50%; inconclusive means mostly about -30% to -49%;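 further: -100% = wells without enzyme as full effect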
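Compounds are screened against recombinant PI4K2A using PI as substrate and ATP, the latter dispensed at 300 microM. Reactions run one hour at ambient temperature before ADP-Glo detection; full inhibition defined by wells lacking enzyme.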
GALK inhibitor: blocks human galactokinase activity | Purified GALK, Kinase-Glo residual ATP luminescence | Potency, µM (top dose mostly 57.5 µM), for inactives: top-dose activity change, negative = inhibition, hits mostly inhibitors | 270,000 compounds, 0.007% hits | P51570; further: potency means the concentration at half of the fitted maximal effect; on the % scale 0 is the no-effect control and ±100 the full control effect
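GALK at 5 nM final was combined with compound, 35 uM ATP and 100 uM galactose in HEPES pH8.0 with MgCl2 and DTT. The reaction ran one hour at room temperature before luminescent ATP detection.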
Nrf2 activator: activates Nrf2 signaling; Potency, µM (top dose mostly 46.1 µM), inactives show top-dose activation, usual class: activators; AREc32 ARE-luciferase reporter (MCF7-derived line), luminescence, 24 h; AID 624171; 410,000 compounds, 0.31% hits; further: potency means the concentration at half of the fitted maximal effect; % of control where 0% means no effect; nearly all actives have a fitted effect of over 65% in size
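Steps: seed AREc32_Fluc cells (1000/well, 5% FBS OPTI-MEM); incubate overnight at 37 deg C; add 23 nL compound; incubate 24 hr; add Steady-Glo; hold 30 min RT; read luminescence.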
Starred values were filed as active, the others as inactive; ? = inconclusive; / = no result given; [ ] = dose if it differs, or a comment. Unless noted, the call rests on the fitted dose curve; in most records, active means well fitted curve in the direction sought with a large enough effect; inconclusive means small, poorly fitted or top-dose-only effect, or another doubt; inactive means no such curve, though single readings can be large; an effect the other way counts as inactive or inconclusive.

Start of the data: the first 4 compounds as a preview:
1: O=[N+]([O-])c1ccccc1CN1CCN(S(=O)(=O)c2ccccc2)CC1
2: Cc1ccc(-n2nnnc2SCC(=O)Nc2cccc(NC(=O)c3ccco3)c2)cc1C
3: CC(=O)c1ccc(-n2nnnc2SCC(=O)Nc2cccc(NC(=O)c3ccco3)c2)cc1
4: O=C(N/N=C/c1ccc(Sc2nc3ccccc3[nH]2)o1)c1ccncc1

Screen / compound no. | 1 | 2 | 3 | 4
A549 tox | -5% | -2% | -13% | -4%
miR-21 reporter | / | 16% | -1% | -2%
Nrf2 block | 16µM* | ? | 23µM* | -2%
PI4K2A inh | -2 | 5 | 0 | 1
GALK inhibitor | / | 0% | -3% | /
Nrf2 activator | 0% | 2% | 7% | 7%

This part in full, previewed entries included:
1: O=[N+]([O-])c1ccccc1CN1CCN(S(=O)(=O)c2ccccc2)CC1
2: Cc1ccc(-n2nnnc2SCC(=O)Nc2cccc(NC(=O)c3ccco3)c2)cc1C
3: CC(=O)c1ccc(-n2nnnc2SCC(=O)Nc2cccc(NC(=O)c3ccco3)c2)cc1
4: O=C(N/N=C/c1ccc(Sc2nc3ccccc3[nH]2)o1)c1ccncc1
5: CCN1C(=O)S/C(=C/c2ccc(Sc3nc4ccccc4[nH]3)o2)C1=O
6: C#Cc1nc(Nc2cccc(Cl)c2)nc(NC2CCCC2)n1
7: O=S(=O)(c1cccnc1)N1CCN(c2nc(-c3cccs3)nc3ccccc23)CC1
8: Cc1ccc(CNS(=O)(=O)c2ccc3c(c2)n(C)c(=O)n3C)cc1

Screen / compound no. | 1 | 2 | 3 | 4 | 5 | 6 | 7 | 8
A549 tox | -5% | -2% | -13% | -4% | -8% | -8% | -17% | -2%
miR-21 reporter | / | 16% | -1% | -2% | 12% | / | / | 7%
Nrf2 block | 16µM* | ? | 23µM* | -2% | 21µM* | ? | ? | 21µM*
PI4K2A inh | -2 | 5 | 0 | 1 | -4 | / | / | 0
GALK inhibitor | / | 0% | -3% | / | 0% | / | / | /
Nrf2 activator | 0% | 2% | 7% | 7% | 8% | / | / | 1%

9: Cn1c(=O)n(C)c2cc(NS(=O)(=O)c3ccccc3)c(NCc3ccccc3)cc21
10: Cc1cc(S(=O)(=O)Nc2cc3c(cc2NCc2ccccc2)n(C)c(=O)n3C)ccc1F
11: Cn1c(=O)n(C)c2cc(NS(=O)(=O)c3ccc(C(C)(C)C)cc3)c(NCc3ccccc3)cc21
12: Cc1cc2c(s1)c1cnn(Cc3cccc(C(F)(F)F)c3F)c(=O)c1n2C
13: COc1ccc(Br)cc1S(=O)(=O)N1CCN(S(=O)(=O)c2ccc3c(c2)OCCO3)CC1
14: CCC(=O)NCCCCCCNC(=O)CC
15: O=C(CCl)NCCCCCCCCCNC(=O)CCl
16: COc1ccc(C(=O)CC(=O)C(=O)Nc2ccc(Cl)cc2)cc1

Screen / compound no. | 9 | 10 | 11 | 12 | 13 | 14 | 15 | 16
A549 tox | 2% | 1% | ? | 0% | -1% | -1% | ? | 0%
miR-21 reporter | -11% | -40% | -40% | / | / | -2% | ? | -13%
Nrf2 block | ? | ? | 10µM* | -7% | ? | 8% | -13% | 6%
PI4K2A inh | -3 | -3 | -4 | / | / | 6 | 0 | 1
GALK inhibitor | / | / | / | / | / | 3% | 2% | 0%
Nrf2 activator | 13µM* | 13µM* | 19% | / | / | 0% | 11µM* | 2%

17: COc1ccc(C(=O)CC(Nc2ccc([N+](=O)[O-])cc2)c2ccc(Cl)cc2)cc1 (stereo unspecified)
18: O=C(OC12CCCN(C1)/C(=C/c1cccc(Cl)c1)C2)c1ccc(F)cc1 (stereo unspecified)
19: CS(=O)(=O)N(CC(=O)Nc1ccc(CC#N)cc1)c1ccc(C23CC4CC(CC(C4)C2)C3)cc1
20: COc1ccc([C@H]2OC(=O)C[C@@H]2C(=O)N2CCN(c3ccccc3F)CC2)cc1OC
21: O=C(CN1CCC(c2nc3ccccc3s2)CC1)N1CCCCC1
22: O=C(CN1CCC(c2nc3ccccc3s2)CC1)NCc1cccs1
23: O=C(CSc1ccc(F)cc1)N1CCC(c2nc3ccccc3s2)CC1
24: O=S1(=O)c2ccc(Br)cc2OC[C@@H](Cc2ccccc2)N1Cc1cn(Cc2ccc(C(F)(F)F)cc2)nn1

Screen / compound no. | 17 | 18 | 19 | 20 | 21 | 22 | 23 | 24
A549 tox | ? | / | ? | / | 9% | -2%[1.84 µM] | -10% | /
miR-21 reporter | 30% | / | 15% | / | -9% | 18% | 19% | /
Nrf2 block | 6.5µM* | / | 15µM* | / | 8% | 7.3µM* | 18µM* | /
PI4K2A inh | 7 | -3 | -1 | 5 | -1 | 2 | -5 | -1
GALK inhibitor | 0% | / | 1% | / | 14% | 1% | -1% | /
Nrf2 activator | 1% | / | 4% | / | 4% | 4% | 4% | /

25: COc1ccc(NC(=O)c2cc3n(n2)C(C(F)(F)F)CC(c2ccc4c(c2)OCO4)N3)cc1OC (stereo unspecified)
26: C[C@H]1[C@@H](NC(=O)c2ccc(Cl)cc2)CC[C@@]23CCCN2C(=O)CCC[C@@H]13
27: COc1ccc(C(=O)O/N=C/c2c(C(F)(F)F)nn(C)c2SCc2ccccc2Cl)cc1
28: Cn1nc(C(F)(F)F)c(/C=N/OC(=O)c2ccccc2Cl)c1SCc1ccc(Cl)cc1
29: CCOC(=O)[C@]12CCCC3=C1N(CCC3)C(=O)[C@@H](CC(=O)N1CCCCC1)C2
30: COCC(=O)N1[C@H](CO)[C@@H](c2ccc(-c3cccnc3)cc2)[C@H]1CN(C)S(=O)(=O)c1ccccc1[N+](=O)[O-]
31: c1ccc2nc(-c3nccs3)ccc2c1
32: Cc1ccsc1-c1ccnc(-n2cccc2)n1

Screen / compound no. | 25 | 26 | 27 | 28 | 29 | 30 | 31 | 32
A549 tox | -26% | / | ? | ? | / | / | 3% | 9%
miR-21 reporter | -7% | / | -3% | -4% | / | / | -42% | -8%
Nrf2 block | 23µM* | / | ? | 21µM* | / | / | ? | ?
PI4K2A inh | 3 | -3 | 0 | 1 | 0 | -12 | -4 | -5
GALK inhibitor | 2% | / | 3% | 0% | / | / | 1% | -1%
Nrf2 activator | 0% | / | 0% | -1% | / | / | 3% | 5µM*

33: Clc1ccc(-c2ccnc(-n3cccc3)n2)s1
34: Clc1ccsc1-c1ccc2ccccc2n1
35: Clc1ccsc1-c1ccnc(-n2cccc2)n1
36: C=CCNc1nc(NCC=C)nc(N2CCN(C(c3ccc(F)cc3)c3ccc(F)cc3)CC2)n1
37: CCn1c2ccccc2c2c3ncc4cccn4c3ccc21
38: Cc1c(C(=O)Nc2ccncc2)sc2nc(-c3ccccc3)cn12
39: CCOc1ccc(-n2c(SCC(=O)Nc3ccc(S(=O)(=O)Nc4cc(C)nc(C)n4)cc3)nnc2-c2cccc(C)c2)cc1
40: CCNC(=S)N(CCc1cccc(C)c1)Cc1cc2cc(OC)c(OC)cc2[nH]c1=O

Screen / compound no. | 33 | 34 | 35 | 36 | 37 | 38 | 39 | 40
A549 tox | 4% | -3% | 8% | / | 13% | -4% | / | -12%
miR-21 reporter | -6% | -37% | -26% | / | ? | -4% | / | -4%
Nrf2 block | 21% | ? | ? | / | ? | 10µM* | / | 23µM*
PI4K2A inh | 3 | -1 | -1 | 0 | 1 | -5 | 0 | 1
GALK inhibitor | -3% | 1% | 0% | / | -4% | 0% | / | /
Nrf2 activator | ? | 10µM* | 10µM* | / | 13µM* | 3% | / | 0%

41: CCNC(=S)N(CCc1ccccc1C)Cc1cc2cc(OC)c(OC)cc2[nH]c1=O
42: O=C1CN(C(=O)COC(=O)/C=C/c2ccco2)c2ccccc2N1
43: Cc1ccc(/C=C/C(=O)OCC(=O)N2CC(=O)Nc3ccccc32)o1
44: COC(=O)c1c(NC(=O)c2ccccc2)sc(C(=O)c2ccccc2)c1C
45: COC(=O)c1c(NC(=O)c2ccccc2)sc(C(N)=O)c1C
46: CCCCNc1cc(C)nc(NCc2ccccc2)n1

Screen / compound no. | 41 | 42 | 43 | 44 | 45 | 46
A549 tox | 3% | 1% | -1% | -24% | -6% | -16%
miR-21 reporter | 2% | -2% | -1% | 8% | 3% | 27%
Nrf2 block | -4% | 0% | ? | ? | ? | 18µM*
PI4K2A inh | -1 | 0 | -9 | -2 | 5 | -9
GALK inhibitor | 0% | 0% | -1% | -2% | 12% | -1%
Nrf2 activator | -1% | 13µM* | 19% | 11% | 1µM* | 9%
